The test addresses Melanocyte-stimulating hormone receptor (Mus musculus, UniProt Q01727). In words: In vitro agonist potency for Mouse Melanocortin 1 receptor. It counts as functional.

Sequences of proteins named here, by UniProt entry; tags and fusion partners are left off. A change or cut given only in a name is not applied to a line headed by its entry.
UniProt Q01727: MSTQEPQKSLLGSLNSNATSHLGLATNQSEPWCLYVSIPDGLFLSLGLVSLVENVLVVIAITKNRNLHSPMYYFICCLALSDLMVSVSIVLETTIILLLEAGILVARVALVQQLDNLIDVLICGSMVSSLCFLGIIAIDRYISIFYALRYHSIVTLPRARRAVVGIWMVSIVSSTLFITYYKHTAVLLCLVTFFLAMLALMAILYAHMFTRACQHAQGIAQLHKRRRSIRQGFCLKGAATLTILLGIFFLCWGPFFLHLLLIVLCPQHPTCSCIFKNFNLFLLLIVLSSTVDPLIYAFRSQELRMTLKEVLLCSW

What is called EC50 is the concentration that produces a half-maximal response. Higher therefore signals a less potent agent. Consider `CC(=O)N[C@@H](Cc1cnc[nH]1)C(=O)N[C@H](Cc1ccccc1)C(=O)N[C@@H](CCCN=C(N)N)C(=O)N[C@@H](Cc1c[nH]c2ccccc12)C(N)=O`, for which a half-maximal response (EC50) required 52 nM.

Values taken from ChEMBL document CHEMBL1144419, “N-terminal fatty acylated His-dPhe-Arg-Trp-NH(2) tetrapeptides: influence of fatty acid chain length on potency and selectivity at the mouse melanocortin receptors and human melanocytes” (J Med Chem, 2005).
